In publication PMC8291497 (ACS Chemical Biology, 2021):

Key:
[1] = target: T1, PARM-pWT (364-570; R455K, C483A, C501A, Y524W, C566A) (Homo sapiens, UniProt Q99767, C483A/C501A/C566A/R455K/Y524W); experiment: Stopped flow binding kinetics, APP A-to-E variants to PARM-pWT
T1 construct: PARM-pWT (364-570;); made in house; host or cells: semisynthesis, three-segment approach (expressed fragments plus synthetic segment)
T1 sequence (Q99767 364-570 R455K/C483A/C501A/Y524W/C566A): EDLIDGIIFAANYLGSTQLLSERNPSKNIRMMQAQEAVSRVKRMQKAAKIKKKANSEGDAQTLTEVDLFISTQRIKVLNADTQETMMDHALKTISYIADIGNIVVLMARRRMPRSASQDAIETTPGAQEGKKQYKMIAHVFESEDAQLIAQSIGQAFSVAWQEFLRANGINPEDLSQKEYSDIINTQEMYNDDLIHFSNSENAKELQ
Experimental: (§1) Kinetic binding rate constants were obtained using an upgraded SX17 stopped flow spectrometer (Applied Photophysics), and all experiments were conducted at 25 °C in 500 mM NaCl and 25 mM HEPES (pH 7.4). The relatively high NaCl concentration was used to improve the solubility of the proteins. The change in tryptophan fluorescence was measured using a band-pass filter (excitation at 280 nm and emission at 330 ± 30 nm) when mixing varying concentrations (2–50 μM) of the dansyl peptides with 1 μM protein or 0.5 μM semisynthetic proteins. […] For PTB variants, we used the kobs value from the fast kinetic phase for the analysis. […] We report the errors in kon and koff from the curve fitting. […] For these koff determinations, we report the standard error of the mean of three replicates. Φ values were defined as ΔΔGTS/ΔΔGeq, where ΔΔGTS = RT ln(kon^WT/kon^mut.) and ΔΔGeq = RT ln(Kd^mut./Keq^WT). Calculated coupling free energies were defined as ΔΔΔGEq = RT ln(Kd^mut.:WTKd^WT:mut./Kd^WT:WTKd^mut.:mut.) or ΔΔΔGTS = RT ln(kon^WT:WTkon^mut.:mut./kon^mut.:WTkon^WT:mut.) as previously described.[27] Propagated errors are reported.

[2] = target: T2, PARM-pWT A461α (Homo sapiens, UniProt Q99767, C483A/C501A/C566A/R455K/Y524W); experiment: biochemical; assay type: binding
T2 construct: PARM-pWT (364-570;); made in house; host or cells: semisynthesis, three-segment approach
T2 sequence (Q99767 364-570 R455K/C483A/C501A/Y524W/C566A): T1 sequence (Q99767 364-570 R455K/C483A/C501A/Y524W/C566A)
Experimental: as §1

[3] = target: T3, PARM-pWT Y459ψ (Homo sapiens, UniProt Q99767, C483A/C501A/C566A/R455K/Y524W); experiment: Stopped flow binding kinetics to PARM-pWT A-to-E variant Y459ψ
T3 construct: PARM-pWT (364-570;); made in house; host or cells: semisynthesis, three-segment approach
T3 sequence (Q99767 364-570 R455K/C483A/C501A/Y524W/C566A): T1 sequence (Q99767 364-570 R455K/C483A/C501A/Y524W/C566A)
Experimental: as §1

Row | SMILES | Kd [1] | Kd [2] | Kd [3]
1 | C[C@@H](O)[C@H](NC(=O)[C@@H]1CCCN1C(=O)[C@H](CC(N)=O)NC(=O)[C@H](CCC(=O)O)NC(=O)[C@H](Cc1ccc(O)cc1)NC(=O)COC(=O)[C@H](CC(N)=O)NC(=O)CNC(=O)[C@H](CC(N)=O)NC(=O)[C@H](CC(N)=O)NS(=O)(=O)c1cccc2c(N(C)C)cccc12)C(=O)N[C@@H](Cc1ccc(O)cc1)C(=O)N[C@@H](CCCCN)C(=O)N[C@@H](Cc1ccccc1)C(=O)N[C@@H](Cc1ccccc1)C(=O)N[C@@H](CCC(=O)O)C(=O)O [Peptide G756γ] | 4.6 µM | 27 ± 3 µM | –
2 | C[C@@H](O)[C@H](NC(=O)[C@@H]1CCCN1C(=O)[C@H](CC(N)=O)OC(=O)[C@H](CCC(=O)O)NC(=O)[C@H](Cc1ccc(O)cc1)NC(=O)CNC(=O)[C@H](CC(N)=O)NC(=O)CNC(=O)[C@H](CC(N)=O)NC(=O)[C@H](CC(N)=O)NS(=O)(=O)c1cccc2c(N(C)C)cccc12)C(=O)N[C@@H](Cc1ccc(O)cc1)C(=O)N[C@@H](CCCCN)C(=O)N[C@@H](Cc1ccccc1)C(=O)N[C@@H](Cc1ccccc1)C(=O)N[C@@H](CCC(=O)O)C(=O)O [Peptide N759η] | 24 µM | – | 69 ± 8 µM
